# Experimental data: ChEMBL document CHEMBL3885861, “Open TG-GATES”
# Experiments:
# [1] = organism: Rattus norvegicus; experiment: Open TG-GATES - Regimen: Daily Repeat; type: toxicity, organism-based, Sprague-Dawley; design: regimen Daily Repeat, gender Male, age 6 weeks; details: in vivo, po, tissue Blood, route gavage
# [2] = organism: Rattus norvegicus; experiment: Open TG-GATES - Regimen: Single; type: toxicity, organism-based, Sprague-Dawley; design: regimen Single, gender Male, age 6 weeks; details: in vivo, po, route gavage; for MCV / PT: tissue Blood
# [3] = 0 mg/kg, 72 h, dose level Control, time 3 day
# [4] = 0 mg/kg, […], dose level Control, time 7 day
# [5] = 0 mg/kg, […], dose level Control, time 14 day
# [6] = 0 mg/kg, […], dose level Control, time 28 day
# [7] = 3 mg/kg, 72 h, dose level Low, time 3 day
# [8] = 3 mg/kg, […], dose level Low, time 7 day
# [9] = 3 mg/kg, […], dose level Low, time 14 day
# [10] = 3 mg/kg, […], dose level Low, time 28 day
# [11] = 10 mg/kg, 72 h, dose level Middle, time 3 day
# [12] = 10 mg/kg, […], dose level Middle, time 7 day
# [13] = 10 mg/kg, […], dose level Middle, time 14 day
# [14] = 10 mg/kg, […], dose level Middle, time 28 day
# [15] = 30 mg/kg, 72 h, dose level High, time 3 day
# [16] = 30 mg/kg, […], dose level High, time 7 day
# [17] = 30 mg/kg, […], dose level High, time 14 day
# [18] = 30 mg/kg, […], dose level High, time 28 day
# [19] = 0 mg/kg, 3 h, dose level Control
# [20] = 0 mg/kg, 6 h, dose level Control
# [21] = 0 mg/kg, 9 h, dose level Control
# [22] = 0 mg/kg, 24 h, dose level Control
# [23] = 10 mg/kg, 3 h, dose level Middle
# [24] = 10 mg/kg, 6 h, dose level Middle
# [25] = 10 mg/kg, 9 h, dose level Middle
# [26] = 30 mg/kg, 24 h, dose level High
compound,measurement,setting,value
O=C(CCCN1CCC(O)(c2ccc(Cl)cc2)CC1)c1ccc(F)cc1 [HALOPERIDOL],PT,[1]; [3],12.2 s
same,WBC,[1]; [3],58.1 x10_2/uL
same,MCV,[1]; [4],63.5 fL
same,PT,[1]; [4],12.2 s
same,MCV,[1]; [5],61.2 fL
same,PT,[1]; [5],12.2 s
same,WBC,[1]; [5],93.4 x10_2/uL
same,MCV,[1]; [6],57.6 fL
same,PT,[1]; [6],12.2 s
same,WBC,[1]; [6],143.6 x10_2/uL
same,MCV,[1]; [7],63.9 fL
same,PT,[1]; [7],12.4 s
same,WBC,[1]; [7],70.6 x10_2/uL
same,MCV,[1]; [8],63.3 fL
same,PT,[1]; [8],11.9 s
same,WBC,[1]; [8],85.9 x10_2/uL
same,MCV,[1]; [9],62.3 fL
same,PT,[1]; [9],12.2 s
same,WBC,[1]; [9],95.4 x10_2/uL
same,MCV,[1]; [10],58.1 fL
same,PT,[1]; [10],12.4 s
same,WBC,[1]; [10],153.8 x10_2/uL
same,MCV,[1]; [11],64.1 fL
same,PT,[1]; [11],12.4 s
same,WBC,[1]; [11],62.4 x10_2/uL
same,MCV,[1]; [12],62.2 fL
same,PT,[1]; [12],12.3 s
same,WBC,[1]; [12],86.7 x10_2/uL
same,MCV,[1]; [13],60.8 fL
same,PT,[1]; [13],12.3 s
same,WBC,[1]; [13],97.7 x10_2/uL
same,MCV,[1]; [14],58.1 fL
same,WBC,[1]; [14],129.8 x10_2/uL
same,MCV,[1]; [15],63 fL
same,PT,[1]; [15],12.6 s
same,WBC,[1]; [15],46.7 x10_2/uL
same,MCV,[1]; [16],63 fL
same,PT,[1]; [16],12.3 s
same,WBC,[1]; [16],76.3 x10_2/uL
same,MCV,[1]; [17],60.1 fL
same,PT,[1]; [17],12.4 s
same,WBC,[1]; [17],97.4 x10_2/uL
same,MCV,[1]; [18],57.7 fL
same,PT,[1]; [18],12.6 s
same,WBC,[1]; [18],159.4 x10_2/uL
same,MCV,[2]; [19],65.2 fL
same,PT,[2]; [19],12.3 s
same,MCV,[2]; [20],65 fL
same,PT,[2]; [20],12.2 s
same,MCV,[2]; [21],66.3 fL
same,PT,[2]; [21],12.4 s
same,MCV,[2]; [22],64.8 fL
same,PT,[2]; [22],12.2 s
same,MCV,"[2]; 3 mg/kg, 3 h, dose level Low",65.2 fL
same,MCV,"[2]; 3 mg/kg, 6 h, dose level Low",65.3 fL
same,PT,"[2]; 3 mg/kg, 6 h, dose level Low",12.2 s
same,MCV,"[2]; 3 mg/kg, 9 h, dose level Low",65.3 fL
same,MCV,"[2]; 3 mg/kg, 24 h, dose level Low",68 fL
same,PT,"[2]; 3 mg/kg, 24 h, dose level Low",12.1 s
same,MCV,[2]; [23],66.3 fL
same,PT,[2]; [23],12.4 s
same,MCV,[2]; [24],65.9 fL
same,PT,[2]; [24],12.3 s
same,MCV,[2]; [25],65.3 fL
same,PT,[2]; [25],12.3 s
same,PT,"[2]; 10 mg/kg, 24 h, dose level Middle",12.1 s
same,TG,"[2]; 10 mg/kg, 24 h, tissue Plasma, dose level Middle",124.8 mg/dL
same,MCV,"[2]; 30 mg/kg, 3 h, dose level High",64.7 fL
same,PT,"[2]; 30 mg/kg, 3 h, dose level High",12.4 s
same,MCV,"[2]; 30 mg/kg, 6 h, dose level High",63.7 fL
same,PT,"[2]; 30 mg/kg, 6 h, dose level High",12.1 s
same,MCV,"[2]; 30 mg/kg, 9 h, dose level High",65.4 fL
same,PT,"[2]; 30 mg/kg, 9 h, dose level High",12.2 s
same,MCV,[2]; [26],63.4 fL
same,PT,[2]; [26],12.3 s
